From PubChem BioAssay AID1347056 (Sanford-Burnham Center for Chemical Genomics, 2019)
Only a part is listed here, and it is no random draw. The source made the active and inactive calls.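 Rule for the calls: active = compounds whose plate-normalised and pattern-corrected inhibition of the luciferase reporter signal at the single screening dose is 50% or more; inactive = the rest.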

Assay: inhibitors of TROY-driven NF-kB signaling, primary screen, Q293 LMP1-TROYcd cells, NF-kB luciferase, uHTS (AID 1347056)
Conditions: Q293 LMP1-TROYcd NF-kB luciferase reporter, 4 h; at 10 µM; hits give high values

| Compound | inhibition |
| --- | --- |
| O=[N+]([O-])c1cc(Oc2ccc([N+](=O)[O-])cc2C(F)(F)F)cc([N+](=O)[O-])c1 | inactive: -12.4% |
| COc1ccc(N/C(=N/P(=O)(N2CCOCC2)N2CCOCC2)N2CCOCC2)cc1 | inactive: -16.4% |
| Cc1c2c(nc3ccccc13)SC(C(Cl)Cl)C2 (centres undefined) | inactive: -20.7% |
| O=C(OC1CN2CCC1CC2)C12CC3CC(CC(C3)C1)C2 (centres undefined) | inactive: 1.47% |
| Cc1cc(=O)[nH]c(N[N+](=O)[O-])n1 | inactive: 3.41% |
| O=P1(N(CCCl)CCCl)Nc2ccccc2N1 | inactive: -37.1% |
| O=P1(N(CCCl)CCCl)OCCCN1CCCl (centres undefined) | inactive: -3.44% |
| COc1ccc2nc(NP(=O)(c3ccccc3)c3ccccc3)sc2c1 | inactive: 1.21% |
| COc1cc(I)ccc1[As](=O)(O)O | inactive: -10.8% |
| ClCCSc1nnc(-c2cccnc2)o1 | inactive: -44.4% |
| COC(=O)C1(C)COP(=O)(N2CCCCCC2)OC1 (centres undefined) | inactive: 3.87% |
| CC(C)c1ccc(OP(=O)(Nc2ccccn2)Oc2ccccc2F)cc1 (centres undefined) | inactive: -3.89% |
| CC(C)NC(=O)NP(=O)(Oc1ccccc1)Oc1ccccc1 | inactive: 2.81% |
| O=C(OC1CN2CCC1CC2)c1cccc2[nH]cnc12 (centres undefined) | inactive: -3.77% |
| CCN(CC)C(=S)SC(NC=O)C(Cl)(Cl)Cl (centres undefined) | inactive: 4.65% |
| O=[N+]([O-])c1cc([N+](=O)[O-])c(-c2ccn[nH]2)s1 | inactive: -2.48% |
| C[As](=O)(O)c1cccc(C(=O)O)c1 | inactive: -2.09% |
| O=[As](O)(c1ccc(O)cc1)c1ccccc1O | inactive: -1.86% |
| O=[N+]([O-])c1ccc(-c2cc([N+](=O)[O-])c(O)c([N+](=O)[O-])c2)cc1 | inactive: -10.8% |
| COc1cc(C(=O)NCC2(N3CCOCC3)CCCCC2)ccc1OCC(C)C | inactive: -1.87% |
| [N-]=[N+]=NC1CCCCC1NC(=O)c1cc([N+](=O)[O-])cc([N+](=O)[O-])c1 (centres undefined) | inactive: -14.8% |
| Cc1ccc(OP(=O)(Nc2ccc([N+](=O)[O-])cn2)Oc2ccc(C)cc2)cc1 | inactive: 10.3% |

| Compound | inhibition |
| --- | --- |
| Cc1ccc2nc3c(c(C)c2c1)CC(C(Cl)Cl)S3 (centres undefined) | inactive: -90.8% |
| CCOC(=O)Nc1cccc([As](=O)(O)O)c1 | inactive: 0.97% |
| O=P(Nc1ccccn1)(c1cccc2ccccc12)c1cccc2ccccc12 | inactive: -16% |
| Cc1cc(SC(NC=O)C(Cl)(Cl)Cl)ncn1 (centres undefined) | inactive: -1.67% |
| O=[N+]([O-])c1ccc(Nc2ccc(Oc3ccc([N+](=O)[O-])cc3[N+](=O)[O-])cc2)c([N+](=O)[O-])c1 | inactive: 18.2% |
| CCOC(=O)Nc1ccc([As](=O)(O)O)c(O)c1 | inactive: -14.3% |
| O=C(O)C(O)c1ccc(N(CCCl)CCCl)cc1 (centres undefined) | inactive: 4.65% |
| CC1CCNP(=O)(N(CCCl)CCCl)O1 (centres undefined) | inactive: 8.32% |
| COP(=O)(OC)N1CC1c1ccccc1 (centres undefined) | inactive: -0.23% |
| CCCCOc1ccc(C(=O)NCC2(N3CCCCC3)CCCCC2)cc1OC | inactive: 6.33% |
| Cc1cc(SC(NC(=O)c2ccccc2)C(Cl)(Cl)Cl)nc(C(C)C)n1 (centres undefined) | inactive: -16.1% |
| O=C(OC1CN2CCC1CC2)c1cccc([N+](=O)[O-])c1 (centres undefined) | inactive: 8.86% |
| CSc1ccc(Nc2c([N+](=O)[O-])cc([N+](=O)[O-])cc2[N+](=O)[O-])cc1 | inactive: 40.3% |
| CCOC(=O)c1ccc(NC(=O)C(C)(CCl)SC)cc1 (centres undefined) | inactive: -10.8% |
| CCC(C)N(CC(C)C)C(=S)SC(NC(C)=O)C(Cl)(Cl)Cl (centres undefined) | inactive: 6.09% |
| COP1(=S)c2c(C)nn(CCC#N)c2N=C(c2ccc(F)cc2)N1C (centres undefined) | inactive: -3.23% |
| COC(=O)C1(C)COP(=O)(N2CCCC2)OC1 (centres undefined) | inactive: 5.87% |
| O=C(O)C(=O)c1ccc(N(CCCl)CCCl)cc1 | inactive: 0.32% |
| O=C(COc1ccccc1)OC1CN2CCC1CC2 (centres undefined) | inactive: 0.11% |
| O=C(Nc1ccncc1[N+](=O)[O-])c1ccc([N+](=O)[O-])cc1[N+](=O)[O-] | inactive: 30.2% |
| COc1ccccc1CNC(=O)COC(=O)C(O)(c1ccccc1)c1ccccc1 | inactive: -2.73% |
| CC(C)/C=N\N=C(\N)N[N+](=O)[O-] | inactive: 13.8% |

| Compound | inhibition |
| --- | --- |
| CN(C(=O)Cc1ccc(Cl)c(Cl)c1)[C@@H]1CCCC[C@H]1N1CCCC1 | inactive: -4.13% |
| CC1(CBr)Cn2c(nc3ccccc3c2=O)S1 (centres undefined) | inactive: 12.5% |
| O=P1(Nc2ccccn2)COc2ccccc2OC1 | inactive: 4.07% |
| CCC1=CC2Cc3nc4ccc(Cl)cc4c(N)c3C(C1)C2 (centres undefined) | inactive: 23.2% |
| CCOP(=O)(NC(=NC(C)c1ccccc1)NC(C)c1ccccc1)OCC (centres undefined) | inactive: -14.8% |
| CCOP(=O)(Nc1ccc(C)cn1)OCC | inactive: 19% |
| CN(CCCl)Cc1cc(Cl)c(NC2=NCCN2)c(Cl)c1 | inactive: -5.5% |
| O=P1(N(CCCl)CCCl)NCCC(C(F)(F)F)O1 (centres undefined) | inactive: -5.26% |
| Clc1n[nH]nc1-c1nn[nH][15n]1 | inactive: 3.72% |
| CC(C)(C)C(=O)NC(Sc1ncccn1)C(Cl)(Cl)Cl (centres undefined) | inactive: -7.33% |
| Cc1ccc(S(=O)(=O)N(CCCN)CCCc2c(C)nc(N)[nH]c2=O)cc1 | inactive: 3.34% |
| O=P1(Nc2ncccn2)COc2ccccc2OC1 | inactive: 18.1% |
| Nc1cccc([As](=O)(O)c2ccccc2)c1 | inactive: 5.07% |
| O=[As](O)(c1cccs1)c1cccs1 | inactive: -15.8% |
| Cc1ccc(OCC(=O)OC2CN3CCC2CC3)cc1 (centres undefined) | inactive: -15.2% |
| O=P1(Nc2ccc(Br)cn2)COc2ccccc2OC1 | inactive: 6.49% |
| NS(=O)(=O)c1cccc(NC(=O)COC(=O)C(O)(c2ccccc2)c2ccccc2)c1 | inactive: 8.41% |
| Cc1nn(-c2ccccc2)c2c1P(=O)(N1CCOCC1)N(C)C(c1ccccc1)=N2 (centres undefined) | inactive: -28.7% |
| CC1CCC(C(C)C)C(OP(=O)(Nc2ccccn2)c2ccccc2)C1 (centres undefined) | inactive: 10.3% |
| Cc1ccc(C(=O)OC2CN3CCC2CC3)cc1 (centres undefined) | inactive: 3.09% |
